{"source": "patent US20130331402A1", "about": "“DOSING REGIMEN ASSOCIATED WITH LONG-ACTING INJECTABLE PALIPERIDONE ESTERS” (Janssen Pharmaceutica NV, priority 2009, published 2013)", "origin": "cited, not measured here", "settings": "oral atypical antipsychotics, Table 2"}
{"smiles": "Cc1cc2c(s1)Nc1ccccc1N=C2N1CCN(C)CC1", "note": "[Olanzapine]", "values": [{"measurement": "Terminal Half-life", "result": 33, "unit": "h"}]}
